{"sequences": {"note": "Sequences of proteins named here, by UniProt entry; tags and fusion partners are left off. Residues count along the entry.", "UniProt O60602, 21-858": "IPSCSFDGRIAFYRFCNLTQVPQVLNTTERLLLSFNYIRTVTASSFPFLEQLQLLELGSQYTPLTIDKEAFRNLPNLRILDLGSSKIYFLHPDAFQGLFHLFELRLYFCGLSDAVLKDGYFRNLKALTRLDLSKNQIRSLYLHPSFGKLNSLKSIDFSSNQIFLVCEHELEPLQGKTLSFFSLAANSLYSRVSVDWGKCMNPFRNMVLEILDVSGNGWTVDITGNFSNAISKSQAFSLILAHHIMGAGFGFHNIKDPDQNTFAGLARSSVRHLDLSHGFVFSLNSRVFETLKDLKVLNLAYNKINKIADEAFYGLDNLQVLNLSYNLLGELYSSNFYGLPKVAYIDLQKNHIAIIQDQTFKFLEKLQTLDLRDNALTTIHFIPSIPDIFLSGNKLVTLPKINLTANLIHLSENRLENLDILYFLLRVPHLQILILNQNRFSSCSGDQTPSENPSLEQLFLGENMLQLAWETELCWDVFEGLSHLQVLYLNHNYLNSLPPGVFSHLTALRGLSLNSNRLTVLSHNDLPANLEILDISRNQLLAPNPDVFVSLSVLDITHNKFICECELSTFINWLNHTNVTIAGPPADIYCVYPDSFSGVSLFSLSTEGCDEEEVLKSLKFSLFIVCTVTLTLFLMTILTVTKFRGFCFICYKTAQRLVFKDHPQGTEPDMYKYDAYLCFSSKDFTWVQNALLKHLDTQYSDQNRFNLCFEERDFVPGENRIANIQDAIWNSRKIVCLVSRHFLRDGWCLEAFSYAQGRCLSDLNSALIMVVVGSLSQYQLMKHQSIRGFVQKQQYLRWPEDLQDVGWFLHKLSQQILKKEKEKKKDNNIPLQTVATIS"}, "source": "patent US20240207380A1", "about": "“NOVEL PEPTIDE TARGETING DENDRITIC CELLS, AND COMPOSITION FOR TREATING CANCER COMPRISING SAME” (INDUSTRY FOUNDATION OF CHONNAM NATIONAL UNIVERSITY, priority 2021, published 2024)", "target": "T1, TLR5 (Homo sapiens, UniProt O60602)", "T1 construct": "host or cells: HEK-Blue hTLR5 cells (HEK293-derived reporter line, own knowledge: stably transfected with the human TLR5 gene and an NF-kB-inducible SEAP reporter)", "assay_type": "cell-based", "settings": "HEK-Blue hTLR5 cells, triplicate OD 620 nm, 0.0375 nM-19.29 nM", "protocol": "By using HEK-Blue™ hTLR5 cells (InvivoGen, hKb-htlr-5) and HEK-Blue™ Detection (InvivoGen, hb-det2) assay systems, 4×E7ΔNLS::FlaB (EF) and DCpep6::4×E7ΔNLS::FlaB (DEF) were measured for TLR5-dependent NF-κB-stimulating activity. Also, the EC50 was calculated using triplicate OD 620 nm values for each protein concentration over a wide range of protein concentrations (0.0375 nM-19.29 nM at the AAT Bioquest website).", "note": "pEC50: −log10 of the molar value."}
{"substance": "FlaB: flagellin B (FlaB) derived from Vibrio vulnificus, SEQ ID NO: 23", "values": [{"measurement": "pEC50", "value": 9.14}]}
